Test results reported in US12414990B2, “Use of HLA-A*11:01-restricted hepatitis B virus (HBV) peptides for identifying HBV-specific CD8+ T cells” (AGENCY FOR SCIENCE, TECHNOLOGY AND RESEARCH, priority 2019, dated 2025).

System: HLA-A*11:01-restricted antigen-specific CD8+ T cells in patient's PBMC
Test: Highly multiplexed combinatorial pMHC tetramer staining with mass cytometry (epitope mapping, frequency of antigen-specific CD8+ T cells)
Conditions: patients with detected epitope-specific CD8+ T cells / patients tested, Immune Tolerant (IT) group

RVIDPRRCLK
Hits (Freq > 0.002%) IT: 1/8
